Test results reported in paper PMC12428582, “2-Styrylquinolines with Push-Pull Architectures as Sensors for β-Amyloid Aggregation with Theranostic Properties” (International Journal of Molecular Sciences, 2025).

Sequences of proteins named here, by UniProt entry; tags and fusion partners are left off. Residues count along the entry.
UniProt P05067, 672-713 limits assumed: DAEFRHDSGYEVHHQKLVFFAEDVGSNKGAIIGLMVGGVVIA

Target: T1, fibrils of β-amyloid peptide (human Aβ1–42) (Homo sapiens, UniProt P05067)
T1 construct: amyloid β protein fragment 1–42 (MW = 4514.04); purchased Merck-Sigma-Aldrich
Experiment: Fluorescence titration of sensors with β-amyloid fibrils (Kd by non-linear fitting)
Conditions: sensor 1.0 × 10^−6 M, protein 0 to 2.0 × 10^−6 M, ICT band excitation/emission maxima, read-out: Binding constants values (Kd) and standard deviations
Protocol: Amyloid fibrils from human Aβ1–42 peptide were prepared using a procedure that combines several protocols described in the literature. A 2.2 × 10^−4 M solution of commercially available Aβ1–42 peptide was prepared in a small volume of 100 mM sodium phosphate buffer (pH = 7.04) containing EDTA in concentration 10 mM. This solution was incubated at 37 °C during 72 h in a dry bath supported on an orbital shaker working at 200 rpm. […] Subsequently, 10 μL of the freshly prepared amyloid beta fibrils (c = 1.0 × 10^−4 M) were added to each of the solutions containing the sensors. After a stabilization period of 10 min after each fibril addition at 37 °C, and then equilibration time of 5 min at room temperature, fluorescence emission spectra were recorded for each sensor at their excitation maxima. The increase in fluorescence intensity shown by compounds 6 when titrating with beta-amyloid fibrils was used to determine the protein/sensor binding constants. […]

Kd: 16.8 ± 0.84 µM
SMILES: Cc1ccc2c(c1)sc(-c1ccc(N(C)C)cc1)[n+]2C [ThT, Thioflavin T]
